# From PubChem BioAssay AID720504 (National Center for Advancing Translational Sciences (NCATS), 2013)
# Protein sequences, listed by entry. Tags and fused reporters are not part of them.
# UniProt P53350, whole entry: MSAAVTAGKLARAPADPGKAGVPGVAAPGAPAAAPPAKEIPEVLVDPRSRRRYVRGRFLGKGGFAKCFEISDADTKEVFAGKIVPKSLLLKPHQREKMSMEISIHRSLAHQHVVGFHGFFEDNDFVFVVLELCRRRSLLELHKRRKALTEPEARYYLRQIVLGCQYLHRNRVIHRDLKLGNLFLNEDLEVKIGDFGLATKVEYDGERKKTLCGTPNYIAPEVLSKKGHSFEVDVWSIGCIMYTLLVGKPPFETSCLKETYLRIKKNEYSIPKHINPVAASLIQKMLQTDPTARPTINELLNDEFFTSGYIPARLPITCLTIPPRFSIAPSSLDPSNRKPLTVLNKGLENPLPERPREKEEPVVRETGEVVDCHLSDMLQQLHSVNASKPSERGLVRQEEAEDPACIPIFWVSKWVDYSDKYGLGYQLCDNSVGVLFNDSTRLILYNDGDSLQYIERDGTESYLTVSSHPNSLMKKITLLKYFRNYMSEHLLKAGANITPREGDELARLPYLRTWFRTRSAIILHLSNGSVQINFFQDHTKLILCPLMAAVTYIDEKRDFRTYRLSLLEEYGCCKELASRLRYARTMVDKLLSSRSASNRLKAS
# The entries are a selection whose mix differs from that of the whole data set. Records with an inconclusive call do not appear. The source made the active and inactive calls. The call rests on the fitted dose curve; in most records, active means well fitted inhibition curve with a large enough effect; inconclusive means small, poorly fitted or top-dose-only effect; inactive means flat fitted curve, though single readings scatter.
# Biological target: Serine/threonine-protein kinase PLK1 (Homo sapiens) (UniProt P53350)
# Test: qHTS for Inhibitors of PLK1-PDB (polo-like kinase 1 - polo-box domain): Primary Screen; further: series mostly up to about 57 µM; nearly all actives have a fitted effect of over 65% in size
# Conditions: Plk1 PBD binding of FITC phosphopeptide, fluorescence polarization
# On the % scale 0 is the no-effect control and ±100 the full control effect.
row,Compound,"max response, negative = inhibition"
1,Cc1ccccc1NC1(C#N)CCN(Cc2ccccc2)CC1,inactive: -4.22%
2,CC(C)(C)n1nnnc1C(c1ccnc2ccccc12)N1CCC(n2c(=O)[nH]c3ccccc32)CC1 (stereo not drawn),inactive: -7%
3,CCN1CCC(Nc2cccc(F)c2)CC1,inactive: -3.66%
4,COc1ccc(C(c2nnnn2C2CCCCC2)N2CCC(n3c(=O)[nH]c4ccccc43)CC2)cc1 (stereo not drawn),inactive: -1.59%
5,O=C(NCC1(N2CCCCC2)CCCCC1)c1ccco1,inactive: -1.45%
6,Cn1c(=O)[nH]cc(N(CCCl)CCCl)c1=O,inactive: -0.586%
7,CN(C)c1ccc(C(=O)NCC2(N3CCCCC3)CCCCC2)cc1,inactive: -7.96%
8,CC(=O)N(c1ccccc1)C1CCNCC1,inactive: -11.6%
9,COc1cccc(C(c2nnnn2C2CCCCC2)N2CCC(n3c(=O)[nH]c4ccccc43)CC2)c1OC (stereo not drawn),inactive: 2.74%
10,CCC(c1nnnn1C1CCCCC1)N1CCC(n2c(=O)[nH]c3ccccc32)CC1 (stereo not drawn),inactive: -2.83%
11,O=c1[nH]c2ccccc2n1C1CCN(C(c2ccnc3ccccc23)c2nnnn2C2CCCCC2)CC1 (stereo not drawn),inactive: 1.47%
12,COc1cc(OC)cc(C(=O)NCC2(N3CCCCC3)CCCCC2)c1,inactive: -4.75%
13,Cc1ccc(C(=O)NCC2(N3CCCCC3)CCCCC2)o1,inactive: -1.41%
14,Cc1ccc(Nc2c([N+](=O)[O-])cc([N+](=O)[O-])cc2[N+](=O)[O-])cc1,inactive: -9.38%
15,Fc1ccccc1NC1CCN(Cc2ccccc2)CC1,inactive: 2.31%
16,Cc1ccc(NC2(C#N)CCN(Cc3ccccc3)CC2)cc1,inactive: -2.16%
17,COc1cccc(C(=O)N(c2cc(C)cc(C)c2)C2CCN(C(=O)OC(C)(C)C)CC2)c1,inactive: -3.7%
18,COc1cc(OC)cc(C(=O)NCC2(N3CCOCC3)CCCCC2)c1,inactive: -3.15%
19,COc1cccc(C(c2nnnn2C2CCCC2)N2CCC(n3c(=O)[nH]c4ccccc43)CC2)c1OC (stereo not drawn),inactive: -0.732%
20,CCC(CO)(C(=O)OC1CN2CCC1CC2)c1ccccc1 (stereo not drawn),inactive: -4.65%

row,Compound,"max response, negative = inhibition"
1,CN1CCC(Nc2ccc(Cl)cc2)CC1,inactive: -5.85%
2,CCOc1ncccc1C(=O)NCC1(N2CCOCC2)CCCCC1,inactive: -3.28%
3,CN1CCC(Nc2ccc(F)c(Cl)c2)CC1,inactive: -15.6%
4,CC(C)(C)OC(=O)N1CCC(Nc2ccccc2)CC1,inactive: -12.9%
5,NN(c1ccccc1)C1CCN(CCc2ccccc2)CC1,inactive: -10.6%
6,O=C(O)C1(Nc2ccccc2)CCN(Cc2ccccc2)CC1,inactive: -7.81%
7,CCCOc1ccc(C(=O)NCC2(N(C)C)CCCCC2)cc1,inactive: -3.67%
8,O=c1[nH]c2ccccc2n1C1CCN(C(c2cc3ccccc3o2)c2nnnn2C2CCCC2)CC1 (stereo not drawn),inactive: 3.76%
9,COc1cccc(C(c2nnnn2C(C)(C)C)N2CCC(n3c(=O)[nH]c4ccccc43)CC2)c1OC (stereo not drawn),inactive: -4.97%
10,CCOC(=O)N1CCC(Nc2ccc(C)cc2)CC1,inactive: -9.08%
11,N/C(=N\O)c1c(N)no[n+]1[O-],inactive: 2.65%
12,O=C(OC1CN2CCC1CC2)C1c2ccccc2C=Cc2ccccc21 (stereo not drawn),inactive: -4.74%
13,CCc1cc(C(=O)NCC2(N3CCCCC3)CCCCC2)sc1C,inactive: -2.1%
14,O=c1[nH]c2ccccc2n1C1CCN(C(c2cccs2)c2nnnn2C2CCCC2)CC1 (stereo not drawn),inactive: 4.24%
15,O=C(O)c1cccc(Nc2c([N+](=O)[O-])cc([N+](=O)[O-])cc2[N+](=O)[O-])c1,inactive: -3.21%
16,CCCCn1nnnc1C(c1cccc(OC)c1OC)N1CCC(n2c(=O)[nH]c3ccccc32)CC1 (stereo not drawn),inactive: -4.84%
17,CCCCn1nnnc1C(c1ccccc1)N1CCC(n2c(=O)[nH]c3ccccc32)CC1 (stereo not drawn),inactive: -7.31%
18,COc1cc(C(=O)NCC2(N3CCOCC3)CCCCC2)cc(OC)c1C,inactive: -4.74%
19,O=C(NCC1(N2CCOCC2)CCCCC1)c1cc(Br)ccc1Cl,inactive: -3.75%
20,O=c1[nH]c2ccccc2n1C1CCN(C(c2cccs2)c2nnnn2C2CCCCC2)CC1 (stereo not drawn),inactive: -12.7%

row,Compound,"max response, negative = inhibition"
1,COc1ccc(C(=O)NCC2(N3CCOCC3)CCCCC2)cc1OC,inactive: -4.24%
2,O=c1[nH]c2ccccc2n1C1CCN(C(c2ccnc3ccccc23)c2nnnn2C2CCCC2)CC1 (stereo not drawn),inactive: -7.42%
3,CN(C)C1(CNC(=O)c2cccc(C#N)c2)CCCCC1,inactive: 7.93%
4,c1ccc(CN2CCC(Nc3ccccc3)CC2)cc1,inactive: -17.8%
5,Cc1cc(N(CCCl)CCCl)ccc1C=O,inactive: 3.92%
6,O=c1[nH]c2ccccc2n1C1CCN(C(c2ccccc2)c2nnnn2C2CCCC2)CC1 (stereo not drawn),inactive: -6.73%
7,CCCN1CCC(Nc2cc(OC)cc(OC)c2)CC1,inactive: 2.12%
8,CC(C)(C)n1nnnc1C(c1cccc2ccccc12)N1CCC(n2c(=O)[nH]c3ccccc32)CC1 (stereo not drawn),inactive: -5.75%
9,N#Cc1ccc(C(=O)NCC2(N3CCCCC3)CCCCC2)cc1,inactive: -17.6%
10,CC(C)(C)OC(=O)N1CCC(N(C(=O)c2ccccc2)c2ccc(Cl)cc2)CC1,inactive: -2.74%
11,CCOC(=O)C(CC)C1=NC(C)(C)Cc2ccccc21.O=[N+]([O-])c1cc([N+](=O)[O-])c(O)c([N+](=O)[O-])c1 (stereo not drawn),inactive: 2.96%
12,O=[N+]([O-])c1cc([N+](=O)[O-])c(NCC2CCS(=O)(=O)C2)c([N+](=O)[O-])c1 (stereo not drawn),inactive: -2.19%
13,O=C(NCC1(N2CCCCC2)CCCCC1)c1cccc(C(F)(F)F)c1,inactive: -15%
14,O=C(NCC1(N2CCOCC2)CCCCC1)c1cc(=O)[nH]c2ccccc12,inactive: -14%
15,COc1cc(C(=O)NCC2(N3CCCCC3)CCCCC2)ccc1OC(F)F,inactive: 0.379%
16,CCCCn1nnnc1C(c1cccc2ccccc12)N1CCC(n2c(=O)[nH]c3ccccc32)CC1 (stereo not drawn),inactive: 0.366%
17,CC(C)c1ccc(C(=O)NCC2(N3CCOCC3)CCCCC2)cc1,inactive: -8.22%
18,COc1ccc(NC2CCN(C(=O)OC(C)(C)C)CC2)cc1,inactive: -0.101%
